Assay: Acid dissociation constant, pKa of the compound by UV-visible spectrophotometry
With `O=C(C[n+]1ccc(/C=N/O)cc1)Nc1nc(-c2ccccc2)cs1.[Cl-]` the pKa was 8.27.
`CCOC(=O)Cc1csc(NC(=O)C[n+]2ccc(/C=N/O)cc2)n1.[Cl-]` showed a pKa of 8.42.
For `O=C(C[n+]1cccc(/C=N/O)c1)Nc1nccs1.[Cl-]`, the pKa was 8.47.
`Cc1ccc(-c2csc(NC(=O)C[n+]3ccc(/C=N/O)cc3)n2)cc1.[Cl-]` showed a pKa of 8.38.
`CCOC(=O)c1csc(NC(=O)C[n+]2ccc(/C=N/O)cc2)n1.[Cl-]` showed a pKa of 8.32.
For `O=C(C[n+]1ccc(/C=N/O)cc1)Nc1nccs1.[Cl-]`, the pKa was 8.39.
In the case of `CCOC(=O)Cc1csc(NC(=O)C[n+]2cccc(/C=N/O)c2)n1.[Cl-]`, the pKa is reported as 8.54.
For `Cc1ccc(-c2csc(NC(=O)C[n+]3cccc(/C=N/O)c3)n2)cc1.[Cl-]`, the pKa was 8.77.
With `O=C(C[n+]1cccc(/C=N/O)c1)Nc1nc(-c2ccccc2)cs1.[I-]` the pKa was 8.85.
With `COc1ccc(-c2csc(NC(=O)C[n+]3cccc(/C=N/O)c3)n2)cc1.[I-]` the pKa was 8.92.
Work on `COc1ccc(-c2csc(NC(=O)C[n+]3ccc(/C=N/O)cc3)n2)cc1.[I-]` yielded a pKa of 8.54.
`CCOC(=O)c1csc(NC(=O)C[n+]2cccc(/C=N/O)c2)n1.[Cl-]` gave a pKa of 8.17.

Source: ChEMBL document CHEMBL3596175, “Synthesis and in vitro kinetic evaluation of N-thiazolylacetamido monoquaternary pyridinium oximes as reactivators of sarin, O-ethylsarin and VX inhibited human acetylcholinesterase (hAChE)” (2015)
